Data from ChEMBL document CHEMBL1135659, “Sulfamide-based inhibitors for carboxypeptidase A. Novel type transition state analogue inhibitors for zinc proteases” (J Med Chem, 2002).

Biological target: T1, Carboxypeptidase A1 (Bos taurus, UniProt P00730)
T1 sequence (P00730 whole entry): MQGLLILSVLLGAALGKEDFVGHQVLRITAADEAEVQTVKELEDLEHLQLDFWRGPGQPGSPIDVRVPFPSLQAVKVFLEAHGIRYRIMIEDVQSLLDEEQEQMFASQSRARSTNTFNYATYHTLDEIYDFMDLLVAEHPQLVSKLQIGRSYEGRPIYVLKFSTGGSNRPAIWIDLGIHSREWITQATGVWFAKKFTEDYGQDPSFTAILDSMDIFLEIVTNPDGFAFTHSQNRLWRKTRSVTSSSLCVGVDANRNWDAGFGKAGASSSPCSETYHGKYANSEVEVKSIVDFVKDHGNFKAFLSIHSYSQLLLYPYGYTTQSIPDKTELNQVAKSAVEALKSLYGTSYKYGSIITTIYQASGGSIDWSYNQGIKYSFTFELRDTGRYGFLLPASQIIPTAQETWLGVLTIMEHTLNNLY
Test: Inhibitory activity against Carboxypeptidase A

Question: NS(=O)(=O)N[C@@H](Cc1ccccc1)C(=O)O was tested. Which Ki did it give?
Answer: 650 nM
